Assay results reported in PubChem BioAssay AID576 (NMMLSC, 2007).
Only a part is listed here, and it is no random draw. The source made the active and inactive calls.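 Rule for the calls: active = fluorescence ratio above 2.44, which is 1 plus 3 SD of all ratios; inconclusive = signal too bright to measure linearly, ratio around 10 or more; inactive = fluorescence ratio below 2.44.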

Test: intrinsic compound fluorescence with Jurkat cells – cell-based, flow cytometry, artefact control for VLA-4 allosteric ligand project, primary screen (AID 576);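 note: green fluorescence of cells measured with 488 nm excitation and 530 nm emission; tested at 10 µM compound in the well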
Settings: compound autofluorescence, active compounds read high, 1 = vehicle-only cell background

Structure (SMILES) | fluorescence ratio
CP(=O)(Nc1ccccn1)Oc1ccccc1 (configuration not stated) | inactive: 0.97
Cc1nc2ccc3ccccc3c2o1.O=[N+]([O-])c1cc([N+](=O)[O-])c(O)c([N+](=O)[O-])c1 | inactive: 1.11
CP(=O)(Nc1ccc2c(c1)OCCO2)Oc1ccccc1 (configuration not stated) | inactive: 0.99
Cc1ccccc1NP(C)(=O)Nc1ccccc1C | inactive: 1.09
CN(C)CCOC(=O)C(O)(c1ccccc1)C1CCCCC1 (configuration not stated) | inactive: 1.08
Cc1ccc(C)c(NP(C)(=O)Oc2ccccc2)c1 (configuration not stated) | inactive: 1.21
CP(=S)(Nn1cnnc1)Oc1ccccc1 (configuration not stated) | inactive: 1.05
